Data from US20150322125A1.

Sequences of proteins named here, by UniProt entry; tags and fusion partners are left off. Residues count along the entry.
UniProt P01375, 77-233 limits assumed: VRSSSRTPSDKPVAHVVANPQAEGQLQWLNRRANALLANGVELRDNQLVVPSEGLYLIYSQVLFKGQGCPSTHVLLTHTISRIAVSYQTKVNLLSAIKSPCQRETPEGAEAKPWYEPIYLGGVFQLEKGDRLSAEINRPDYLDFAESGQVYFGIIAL
UniProt Q16552, 24-155: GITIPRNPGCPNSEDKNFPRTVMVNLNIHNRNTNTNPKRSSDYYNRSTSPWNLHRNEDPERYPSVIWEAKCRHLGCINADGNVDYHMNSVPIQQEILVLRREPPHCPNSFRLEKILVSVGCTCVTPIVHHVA
UniProt P79337, 77-233 limits assumed: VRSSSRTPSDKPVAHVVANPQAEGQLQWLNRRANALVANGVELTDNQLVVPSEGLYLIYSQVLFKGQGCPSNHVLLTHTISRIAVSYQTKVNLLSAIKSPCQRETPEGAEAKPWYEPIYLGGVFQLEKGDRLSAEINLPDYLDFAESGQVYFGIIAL

Columns and labels:
human TNFα (human) [1] = target: human TNFα (human) (UniProt P01375); test: cell-based or functional assay
[2] = target: recombinant human glycosylated IL-17A (produced in-house in HEK EBNA cells) (human) (UniProt Q16552); test: cell-based or functional assay
[3] = target: recombinant Cynomolgus TNFα (Cynomolgus) (UniProt P79337); test: SPR, BIAcore T200, construct captured by anti-human IgG Fc antibody, antigen injected
[4] = target: recombinant Cynomolgus glycosylated IL-17A (Cynomolgus); test: as above
human TNFα (human) [5] = target: human TNFα (human) (UniProt P01375); test: as above
[6] = target: recombinant human glycosylated IL-17A (produced in-house in HEK EBNA cells) (human) (UniProt Q16552); test: as above

| Apparent IC50 value (pM) for simultaneous inhibition of IL-17A and TNFα; Gro-α release by HT-29 cells stimulated with 400 pM IL-17A and 200 pM TNFα (human TNFα (human) [1]) [pM] | Apparent IC50 value (pM) for simultaneous inhibition of IL-17A and TNFα; Gro-α release by HT-29 cells stimulated with 400 pM IL-17A and 200 pM TNFα [2] [pM] | IC50 value (pM) for inhibition of IL-17A; IL-6 release by NHDF cells stimulated with 64 pM IL-17A and 10 fM IL-1β [2] [pM] | Kd [3] [pM] | Kd [4] [pM] | Kd (human TNFα (human) [5]) [pM] | Kd [6] [pM] | Substance |
| --- | --- | --- | --- | --- | --- | --- | --- |
| 247 | 247 | 121 | 120 | – | – | – | LC11L5-B06, bispecific anti-IL-17A/TNFα antibody-Fynomer fusion (bispecific antibody) |
| – | – | – | – | 63 | 144 | 44 | LC11L5-B06, bispecific anti-IL-17A/TNFα antibody-Fynomer fusion (bispecific antibody; other documents disagree on this pair) |
| 222 | 222 | 66 | 133 | – | – | – | LC11L9-C09, bispecific anti-IL-17A/TNFα antibody-Fynomer fusion (bispecific antibody) |
| – | – | – | – | 70 | 89 | 48 | LC11L9-C09, bispecific anti-IL-17A/TNFα antibody-Fynomer fusion (bispecific antibody; other documents disagree on this pair) |
